For 18 molecules, fold change (FC) results are on record in ChEMBL document CHEMBL4765458, “Synthesis and biological evaluation of organoselenium (NSAIDs-SeCN and SeCF) derivatives as potential anticancer agents” (Eur J Med Chem, 2020).

Each structure is given as a SMILES string.

The nature of the test: Antioxidant activity assessed as DPPH radical scavenging activity incubated for 30 mins under dark condition relative to vitamin C. Format: functional. For orientation: Loss of DPPH colour is used to gauge radical scavenging.
For `COc1ccc2c(c1)c(CC(=O)NCCC[Se]C(F)(F)F)c(C)n2C(=O)c1ccc(Cl)cc1`, the fold change (FC) was 0.3.
For the molecule `CC(=O)Oc1ccccc1C(=O)NCCC[Se]C(F)(F)F`, the fold change (FC) was 0.8.
The same measure for `CC1=C(CC(=O)NCCC[Se]C(F)(F)F)c2cc(F)ccc2/C1=C\c1ccc([S+](C)[O-])cc1` (stereo not drawn): 0.4; for `CCc1cccc2c3c([nH]c12)C(CC)(CC(=O)NCCC[Se]C(F)(F)F)OCC3` (stereo not drawn): 0.3; for `C[C@H](C(=O)NCCC[Se]C#N)c1cccc(C(=O)c2ccccc2)c1`: 0.3.
To `COc1ccc2cc([C@H](C)C(=O)NCCC[Se]C(F)(F)F)ccc2c1` belongs 0.4; to `COc1ccc2cc([C@H](C)C(=O)NCCC[Se]C#N)ccc2c1`, 0.2.
Consider `Cc1cccc(Nc2ccccc2C(=O)NCCC[Se]C#N)c1C`, for which the fold change (FC) came to 0.3.
The same measure for `CCc1cccc2c3c([nH]c12)C(CC)(CC(=O)NCCC[Se]C#N)OCC3` (stereo not drawn): 0.3; for `CC(C)Cc1ccc(C(C)C(=O)NCCC[Se]C#N)cc1` (stereo not drawn): 0.7; for `CC(=O)Oc1ccccc1C(=O)NCCC[Se]C#N`: 0.6.
Turning to `CC1=C(CC(=O)NCCC[Se]C#N)c2cc(F)ccc2/C1=C\c1ccc([S+](C)[O-])cc1` (stereo not drawn), the fold change (FC) amounted to 0.2.
The same measure for `CC(C)Cc1ccc(C(C)C(=O)NCCC[Se]C(F)(F)F)cc1` (stereo not drawn): 0.7.
Turning to `CC(C(=O)NCCC[Se]C#N)c1ccc(-c2ccccc2)c(F)c1` (stereo not drawn), the fold change (FC) is 0.2.
The same measure for `C[C@H](C(=O)NCCC[Se]C(F)(F)F)c1cccc(C(=O)c2ccccc2)c1`: 0.5.
To `COc1ccc2c(c1)c(CC(=O)NCCC[Se]C#N)c(C)n2C(=O)c1ccc(Cl)cc1` belongs 0.5; to `Cc1cccc(Nc2ccccc2C(=O)NCCC[Se]C(F)(F)F)c1C`, 0.4; to `CC(C(=O)NCCC[Se]C(F)(F)F)c1ccc(-c2ccccc2)c(F)c1` (stereo not drawn), 0.4.
